## Yeast mating assay 2: variants of the scFv Ab-95

The measurements come from Engelhart et al. 2022 (doi:10.1038/s41597-022-01779-4) through the FLAb antibody collection.

Antigen: PDVDLGDISGINAS, a 14-residue peptide of the SARS-CoV-2 spike HR2 region.

Parent scFv Ab-95: VH joined to VL by the linker GGGGSGGGGSGGGGS. Changes lie in the light chain CDRs alone.
VH: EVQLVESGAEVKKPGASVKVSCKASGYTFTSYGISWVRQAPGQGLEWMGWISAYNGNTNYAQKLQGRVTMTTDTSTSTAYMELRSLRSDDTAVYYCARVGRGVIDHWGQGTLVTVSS
VL: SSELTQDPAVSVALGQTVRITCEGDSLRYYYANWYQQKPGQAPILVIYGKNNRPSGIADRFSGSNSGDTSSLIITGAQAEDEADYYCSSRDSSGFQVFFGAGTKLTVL

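Phage display of a naive human antibody library on the peptide gave the parent. The library (AAYL52) carries one to three amino acid substitutions per variant, with no insertions or deletions. The assay is AlphaSeq: two haploid yeast populations carry antibody and antigen on their surface. After mating in shaken culture at 30 °C for 16 h, diploids were selected and their barcode pairs sequenced. Each replicate has its own calibration line, from reference interactions of the BCL2 family. Mating was done three times.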

Changes read parent residue, position, new residue, counted from the first residue of the VL shown. This list gathers variants with a substitution at N52 (VL, numbered from residue 1). Each Kd is an estimate from the mating assay, the geometric mean of the replicates in which the pair was seen; lower is stronger. "nd" means that the variant was in the library but no mating with the target was seen in any replicate; the authors take this as a sign of poor binding, and no number exists.

With R28Q+N52A+S89A the result was 75 nM (3 of 3 replicates).
With Y31N+N52C+F95E the result was 160 nM (3 of 3 replicates).
With N33T+N52C+G94T the result was 13 µM (2 of 3 replicates).
With N33I+N52S the result was 360 nM (3 of 3 replicates).
With N52W+F95V+V97R the result was 6.5 µM (1 of 3 replicates).
With K50L+N52P+F95H the result was 13 µM (1 of 3 replicates).
With D25V+N52R+G94W the result was nd (0 of 3 replicates).
With G24T+N52T+S93R the result was 11 µM (2 of 3 replicates).
With E23I+Y30F+N52F the result was 2.2 µM (2 of 3 replicates).
With A32G+N52K+V97A the result was 32 µM (1 of 3 replicates).
With K50C+N52Y+R53T the result was 20 µM (2 of 3 replicates).
With G49V+N52V+P54Q the result was 19 µM (1 of 3 replicates).
With K50V+N52G+D91C the result was 600 nM (3 of 3 replicates).
With R28E+K50V+N52Q the result was 9.7 µM (1 of 3 replicates).
With N52Y+G94W the result was 440 nM (3 of 3 replicates).
With N52H+S92D+S93D the result was 4.5 µM (3 of 3 replicates).
With Y31T+N52W+P54R the result was nd (0 of 3 replicates).
With N52G+S89Q+F95D the result was 950 nM (3 of 3 replicates).
With G49N+N52K+Q96M the result was 450 nM (1 of 3 replicates).
With Y31M+A32C+N52R the result was 1.2 µM (3 of 3 replicates).
With N52E+S55F+R90V the result was 220 nM (3 of 3 replicates).
With N52P+P54A+S92K the result was nd (0 of 3 replicates).
With G24N+N52H+G94Y the result was 51 µM (1 of 3 replicates).
With G24C+N52L+S88L the result was 2.1 µM (2 of 3 replicates).
With S26I+N52I+S89I the result was nd (0 of 3 replicates).
With K50C+N52H the result was 180 µM (2 of 3 replicates).
With N52I+R53Q the result was 910 nM (3 of 3 replicates).
With G49L+N52Q+P54S the result was 18 µM (1 of 3 replicates).
With R28Y+N52W+S92T the result was 3.3 µM (1 of 3 replicates).
With D25F+L27W+N52L the result was 130 µM (1 of 3 replicates).
With N52D+P54K+S55K the result was 480 nM (3 of 3 replicates).
With N52I+S88Q+F98Q the result was nd (0 of 3 replicates).
With Y29L+N52I+S55P the result was 760 nM (3 of 3 replicates).
With Y29Q+N33S+N52Q the result was 970 nM (3 of 3 replicates).
With Y30H+G49I+N52Q the result was nd (0 of 3 replicates).
With N52L+R90D the result was 2.0 µM (1 of 3 replicates).
With N52W the result was 360 nM (3 of 3 replicates).
With S26R+N33Y+N52G the result was nd (0 of 3 replicates).
With G24W+N52T the result was 1.3 µM (3 of 3 replicates).
With N52W+S88L+D91K the result was 8.5 µM (2 of 3 replicates).

For reference, 5 entries of the list once more:

For S26R+N33Y+N52G, the assay gave nd (0 of 3 replicates).
For Y30H+G49I+N52Q, the assay gave nd (0 of 3 replicates).
For N52W+F95V+V97R, the assay gave 6.5 µM (1 of 3 replicates).
For G24W+N52T, the assay gave 1.3 µM (3 of 3 replicates).
For N52P+P54A+S92K, the assay gave nd (0 of 3 replicates).

Three control strains display no target. For library AAYL52, 28% of the pairings with them gave a signal, with a median of 8.2 µM and one signal in twenty below 800 nM, so weak values seen in few replicates may be background.